In ChEMBL document CHEMBL1154777, “Univalent and bivalent ligands of butorphan: characteristics of the linking chain determine the affinity and potency of such opioid ligands” (J Med Chem, 2009) one finds Ratio Ki data, which are given here for 1 compound.

Structures are written as SMILES.

This assay is filed under the species Homo sapiens. Put plainly: Selectivity ratio of Ki for human mu opioid receptor to Ki for human kappa opioid receptor.

In the case of `Oc1ccc2c(c1)[C@@]13CCCC[C@H]1[C@@H](C2)N(CC1CCC1)CC3`, the Ratio Ki is 3.
